# From patent US9062320B2, “Biological systems input-output response system and plant sentinels” (dated 2015)
# Key:
# [1] = system: Transgenic Arabidopsis leaves containing ssTNT, FLS:Trg:PhoR, PhoB:VP64 and PlantPho promoter degreening genes; assay: TNT induced degreening of excised transgenic Arabidopsis leaves
# Excerpt: (§1) FIGS. 6A-6D show functional plant sentinel via linking input to degreening circuit. TNT induced Degreening: Transgenic Arabidopsis or Tobacco leaves containing ssTNT. FLS:Trg:PhoR, PhoB:VP64, and the PlantPho promoter controlling expression of the degreening genes, were excised and submerged in TNT. The progress of degreening was followed in one day increments. […] FIGS. 6C-D show time-course monitoring of chlorophyll fluorescence as a measure of degreening in Arabidopsis and Tobacco detached leaves induced to degreen. Chlorophyll measurements were obtained using a Fluorcam. One of the parameters derived from chlorophyll measurements is Fv/Fm, which is a measure of photosynthetic capability (specifically maximum quantum yield of PSII). A normal leaf would have an Fv/Fm ratio of 0.8. Note the decline over time in the Fv/Fm ratio as the leaves degreen, however the wild-type Columbia leaf stayed close to 0.8.
# (§2) Arabidopsis and tobacco plants were then co-transformed with the PlantPho promoter-degreening circuit and the SS-TNT, FLS:TRG:PhoR, PhoB:VP64 construct.
# [2] = system: PlantPho promoter linked to GUS; assay: GUS induction by TNT in plants with mutagenized PhoBD53A:VP64 linked to the TNT sensing system; settings: 10 μM TNT; PhoBD53A:VP64 mutagenized protein; control levels close to 4
# Excerpt: FIGS. 3A-3E show evidence for signal-dependent nuclear shuttling of bacterial response regulators in plants. […] FIG. 3A panels A-B show transient assay of PhoB:GFP fusion protein in onion epidermal cells. Cells treated with cytokinin (B) had stronger nuclear PhoB:GFP accumulation than control (A) cells. FIG. 3A panels C-P show signal-dependent shuttling of PhoB:GFP to the nucleus in transgenic Arabidopsis plants. Localization of PhoB:GFP in roots (C-H), in leaves (I-J, M-N), and the crown (K-L, O-P), a stem-like region. Prior to cytokinin treatment (C, I, K), fluorescence from PhoB:GFP is diffuse and throughout the cells. […] FIG. 3A panels Q-R show confocal microscopy of PhoB:GFP roots showing that the protein enters the nucleus. Insets correspond to close-up views. −CK, plant tissues prior to cytokinin treatment; +CK same plant tissue after cytokinin treatment. DAPI, same tissues treated with DAPI to stain DNA. Arrowheads indicate nuclei. Scale bars=50 μm. […]
# The D53 in PhoB, that is fused with GFP, was mutagenized (Asp 53 to Ala), the DNA sequence verified, and then transferred into Arabidopsis plants (FIG. 3D). […] For PhoB, it was also shown that the Asp53 residue is important in quantitative GUS assays with the TNT sensor protein and hybrid HKs described below. […]
# [3] = system: Transgenic Tobacco leaves containing ssTNT, FLS:Trg:PhoR, PhoB:VP64 and PlantPho promoter degreening genes; assay: TNT induced degreening of excised transgenic tobacco leaves; settings: 10 μM TNT
# Excerpt: as §1, §2
# Plant material, transgenic plant production and growth conditions. Wild type Arabidopsis thaliana (ecotype Columbia) were used for analysis and transgenic plant production. Plasmids were assembled as described above and transferred into Agrobacterium tumefaciens strain GV3101 by electroporation. […]
# [4] = system: ARR5 promoter fused to GUS; assay: GUS expression from ARR5 promoter in response to TNT (SS:TNT, FLS:TRZ:AHK4); settings: plants homozygous for ARR5 promoter:GUS retransformed with SS:TNT and FLS:TRZ:AHK4
# Excerpt: Quantitative (GUS) and qualitative (GFP) data were obtained for transgenic Arabidopsis plants homozygous for the ARR5 promoter fused to GUS and GFP, respectively, retransformed with the computationally designed receptor for TNT (SS:TNT) and the hybrid histidine kinase (plant leader (FLS):TRZ:AHK4). In response to TNT, the ARR5 promoter was activated causing an approximate 2-fold increase in GUS expression.
# (§3) TNT Induction of Arabidopsis Plants. TNT (ChemService, West Chester, Pa.) stock solution was prepared by dissolving TNT powder in DMSO. Final solutions containing different concentrations of TNT were prepared in water. Plants were incubated in water (control) or water plus 10 uM TNT for 16 hours.
# (§4) GUS fluorometric assays. After incubation of plants with inducer of the gene circuit (CK, TNT, etc.), plants/leaves were ground in extraction buffer (50 mM NaHPO4, pH 7.0, 10 uM β-mercaptoethanol, 10 mM Na2EDTA, pH 8.0, 0.1% Sarcosyl, 0.1% Triton X-100). GUS Reaction: Protein extract combined with extraction buffer was incubated and then stopped with reaction stop buffer (0.2 M Na2 CO3) and 4-MU fluorescence read on a DyNA Quant 200 Fluorometer (Hoefer, Inc., San Francisco, Calif.) (Gallagher, S. R., 1992).
# [5] = system: PlantPho promoter linked to GUS; assay: GUS expression from PlantPho promoter in response to TNT (SS-TNT, FLS:Trg:PhoR, PhoB:VP64)
# Experimental: In FIG. 4B, plants are exposed to TNT, TNT binds the sensor protein, the sensor protein develops affinity for the exterior of the histidine kinase (Trg), the histidine kinase is activated, and the operably linked interior (PhoR) transmits a high energy phosphate group to PhoB:VP64 that then shuttles to the nucleus and activates transcription of the PlantPho promoter linked to GUS. […] All assumptions for this analysis were tested and met.
# T0 represents the first generation of transgenic plants whereas T1 represents the second generation (T0 seed self-pollinated). Seed from two of the T0 parental lines has been obtained. These lines segregate for the two T-DNA inserts that contain the signaling components. One T-DNA contains the genes for the receptor and histidine kinase (SS-TNT, FLS:Trg:PhoR) while the other T-DNA contains the genes for the response regulator (PhoB:VP64) and the PlantPho promoter fused to GUS (PlantPho:GUS). In bacterial sensing and signaling systems, the sensitivity and response systems are extremely sensitive to the other's levels. In the transgenic plants, the two genetic sets segregate in a classic 9:3:3:1 pattern.
# as §3, §4
structure (smiles),measurement,setting,value
Cc1c([N+](=O)[O-])cc([N+](=O)[O-])cc1[N+](=O)[O-],degreening phenotype,[1]; 100 pM (23 parts per trillion) of TNT,white leaves
same,time within which induction could be detected using remote techniques,"[1]; 100 pM TNT, chlorophyll fluorescence (Fluorcam)",≤ 5 h
same,GUS activity levels,[2],less than 4 nM MU/mg protein/hour
same,degreening phenotype,[3],notable degreening
same,remote readout (chlorophyll fluorescence),[3]; at 24 hours,notably different
same,increase in GUS expression,[4],2 fold
same,extremely low level of TNT the system is responding to,"[5]; FIG. 4B, FLS:Trg:PhoR, PhoB:VP64, PlantPho:GUS",10 picomoles
same,"GUS activity, induced levels","[5]; TNT induction, wild-type PhoB:VP64, control levels close to 4",≥ 6 nM MU/mg protein/hour
same,increase in expression with sensing TNT,"[5]; data from FIG. 4, model plants",about a two-fold increase in expression

# This is a selection: effects in other tests are not listed, and their absence says nothing.
